Test results as given in patent US4602945A, “Acaricidal ester of tricyclohexyl-tin hydroxide” (Rhone-Poulenc Agrochimie, priority 1983, dated 1986).

Experiments:
Polyphagotarsonemus = assay: Acaricidal test carried out in the same manner on another species of acarids; format: in vivo
Description: Bean plants at the stage of 1 trifoliate leaf are contaminated with a mixed population of Tetranychus urticae.
After 48 hours, the contaminated plants are treated with aqueous dilutions of the compositions to be tested, using a spray gun of the FISCHER type, until dripping wet. These compositions consist of:
Three bean plants are used per product and per dose. The treated plants are kept in a greenhouse for 14 days (temperature 20°-25° C., relative humidity 40-60%, illumination 5 to 10,000 lux). The plants are watered at the foot, to avoid any washing off of the products.
After 2, 7 and 14 days after the treatment, the population of acarids present on each plant is estimated in relation to the mean of 3 controls treated only with water. A percentage activity is deduced therefrom: [formula]

[1] = Solubility in organic solvents; format: physicochemical
Description: A reactor is charged, with cyclohexanone (546 g) and 94% pure tricyclohexyl-tin hydroxide (316 g) at 50° C., with stirring. […] Benzoic acid (95 g) is then added and the temperature is kept at 50° C. After stirring for 10 minutes, a yellow solution is obtained which, after filtration and drying, gives a clear solution. An emulsifiable concentrate of specific gravity 1.057 at 20° C. is obtained by adding emulsifiers as in the preceding example.

tricyclohexyl-tin benzoate
lethal dose at 90% (Polyphagotarsonemus; Polyphagotarsonemus): 10 ppm | lethal dose at 90% relative to the reference cyhexatin (Polyphagotarsonemus; versus cyhexatin used as a wettable powder): eight times less | solubility in most of the organic solvents [1]: excellent solubility
